Experimental data published in publication PMC9609924, “In Vitro Characterization of Inhibitors for Lung A549 and Leukemia K562 Cell Lines from Fungal Transformation of Arecoline Supported by In Silico Docking to M3-mAChR and ADME Prediction” (Pharmaceuticals, 2022).

Legend:
normal lung cell WI38 = assay: MTT cytotoxicity assay, normal lung cell WI38; format: cell-based
Method: (§1) The selectivity index identifies the selectivity of the tested compounds toward the cancer cell line and is calculated by dividing the IC50 against the normal cell line by the IC50 against the cancer cells.

[1] = tested on: normal blood cell PCS-800-016; assay: MTT cytotoxicity assay, normal blood cell PCS-800-016; format: cell-based
Method: as §1

[2] = tested on: leukemia cancer K562 cells; assay: Annexin V-FITC/propidium iodide apoptosis detection, K562; format: cell-based, human; settings: K562, versus untreated cells
Method: For cell cycle analysis, a propidium iodide flow cytometry kit (ab139418, Abcam, Cambridge, UK) was used. For apoptosis, we used an annexin V apoptosis kit, which is composed of annexin V-FITC (fluorescein isothiocyanate), 1X binding buffer, and propidium iodide. Detection was conducted by measuring DNA content using a flow cytometer.

## O=C(O)C1CCCNC1 [Compound 3, D-piperidine-3-carboxylic acid]
Normal lung cell WI38
  SI (Lung), selectivity index: 3.64
[1]
  SI (Blood Cell), selectivity index: 11.37
[2]
  Fold increase of early apoptosis than control: 6.30 fold
  Fold increase of late apoptosis than control: 758.75 fold
  Fold increase of necrosis than control: 8.30 fold
  Fold increase of total cell death than control: 25.73 fold
